Patent publication US11731927B2, “Cocrystals of ubiquinol and compositions comprising them” (Center for Intelligent Research in Crystal Engineering, S.L., priority 2018, dated 2023)

Key:
[1] = Stability study, comparative ubiquinol vs cocrystals: storage in a chamber, periodic analysis for ubiquinone and the form detected; format: physicochemical; conditions: 25° C.-57% HR; "<" ubiquinone detected at least after the indicated days; ">" ubiquinone not detected yet
Method: Powder X-Ray diffraction (PXRD) analyses were performed by sandwiching the powder samples between polyester films of 10 micrometres of thickness or polyamide (kapton) films of 15 micrometres of thickness and analysed in a PANalytical X′Pert PRO MPD q/q powder diffractometer of 240 millimetres of radius, in a configuration of convergent beam with a focalizing mirror and a flat sample transmission geometry, in the following experimental conditions: Cu Kα radiation (λ=1.5406 Å); Work power: 45 kV and 40 mA; Incident beam slits defining a beam height of 0.4 millimetres; Incident and diffracted beam 0.02 radians Soller slits; PIXcel detector: Active length=3.347°; 2θ/θ scans from 2 to 40° 2θ with a step size of 0.026° 2θ and a measuring time of 76 seconds per step.
The stability of the different forms has been studied under two experimental conditions. The samples were stored under both conditions inside a Series FD Binder chamber and they were analyzed periodically: • condition A: 25° C. and 57% of relative humidity; • condition B: 40° C. and 75% of relative humidity.
A saturated solution of sodium bromide salt (57% RH) and a saturated solution of sodium chloride (75% RH) were used to control relative humidity.
75% HR by indicating the form detected after the mentioned days. No ubiquinone was detected at least after 14 days.

[2] = as above; format: physicochemical; conditions: relative humidity not controlled, "<" ubiquinone detected at least after the indicated days, ">" ubiquinone not detected yet

Question: Which “stability at 25° C. measured by controlling the moment when ubiquinone was detected” value [1] does the source give for “Cocrystal Hydrate of Ubiquinol and 3,4-dihydroxybenzoic Acid [P58-III]” here?
Answer: >551 days

Question: And the “stability at 25° C. measured by controlling the moment when ubiquinone was detected” value [2]?
Answer: >133 days
